# Test system: Ca2+ uptake of pig heart mitochondria
# Assay: Ca2+ uptake assay using isolated pig heart mitochondria (atomic absorbance spectrometer)
# Type: biochemical
# Settings: 100 μM CaCl2
substance,measurement,value
carbonyl cyanide-p-trifluoromethoxyphenylhydrazone,effect on Ca2+ uptake activity of isolated pig heart mitochondria (in words),significantly inhibited
